# Yeast mating assay B: variants of the scFv Ab-14

All variants were tested on one target, the spike HR2 peptide PDVDLGDISGINAS (SARS-CoV-2).

Parent: Ab-14, a human scFv built as VH, a (GGGGS)3 linker, VL. Only the CDRs of the light chain vary.
VH: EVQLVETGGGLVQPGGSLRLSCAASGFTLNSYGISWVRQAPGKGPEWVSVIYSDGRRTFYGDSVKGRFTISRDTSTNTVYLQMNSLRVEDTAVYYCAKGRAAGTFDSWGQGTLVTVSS
VL: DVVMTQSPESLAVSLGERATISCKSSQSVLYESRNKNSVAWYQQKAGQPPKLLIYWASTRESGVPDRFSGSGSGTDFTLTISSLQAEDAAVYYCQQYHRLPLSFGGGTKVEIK

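The parent was found by panning a naive human phage display library on the peptide. These sequences belong to a second round, designed from the earlier measurements on random variants of the parent. Several design methods are mixed in this list. The scFvs were displayed on barcoded MATa yeast, the peptide on MATalpha yeast. The frequency of each diploid, read from paired DNA barcodes, reflects how well the two displayed proteins bind. Read counts were normalised to the haploid input and turned into Kd by a linear fit to BCL2-family pairs of known affinity, for each replicate. The assay was run in six technical replicates.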

The parent's light chain CDRs are KSSQSVLYESRNKNSVA, WASTRES, QQYHRLPLS; each variant's own CDRs replace them letter for letter. Scale: log10 of Kd in nM, estimated from mating counts; low values are strong binders. Replicates are averaged; those with no signal do not enter the mean. Where no diploid with the target was found in any replicate, the entry reads "no signal": below detection, most likely a poor binder, though not proof of it. Empty control strains, which show no peptide, gave a signal in 4% of pairings with all light chain designs; the median was 2.64 and 95% of these signals were weaker than 1.59. No background was subtracted.

mean log10 Kd (nM)	detected	CDR-L1	CDR-L2	CDR-L3
0.02	6/6	KLQQSELYESRNKNSVA	QASTRMS	QQYHRLPLS
-0.10	6/6	KLSQSVLYESRNKNSVA	NASTRLE	QQYHRLPLS
0.46	6/6	TISQSAQQESHNKNSVA	DLNVRGG	QQYDRLPLS
0.26	6/6	KSSQSDLYESRNGNSVA	NGSTRMD	QQYHRLPLS
0.29	6/6	KHSKSVWYESRNKNSVA	WASTRES	QQYHRLPIS
-0.22	6/6	KSGQEVLYESRNKNSVA	GASLRES	QQYHRLPLS
-0.21	6/6	KMEQGVLYESRNKNSVA	DASVRES	QQYHRLPLS
-0.11	6/6	VFQDQWDGHTDTHNSVA	NVDEKME	QQYYRLPLL
1.72	6/6	KSIQSVLWESRLKNSVA	NCSTRES	QQYHRNPLS
1.03	6/6	NISYLQGVSTNSVNNVA	QASKRAP	QYYQRLPLC
-0.17	6/6	KVSQEQDYQSRNKNSVA	DASQREE	QQYHRLPLS
no signal	0/6	KSSQGVLYESRNKNSVA	WASNRES	QQYHRLPLS
2.12	1/6	KSSQSVLYESRNKNSVA	RASTRES	QQYARLPLS
-0.30	6/6	KLSQSVLYEERNKNSVA	NASTRLS	QQYHRLPLS
0.01	6/6	KLQQSVLYEERNKNSVA	NASTRES	QQYHRLPLS
0.81	6/6	KMSQSVLYESNNKNSVA	WASTRES	QQYHRLPLS
1.05	6/6	HITYGMMLYGRHSKSIA	QAEERAK	QQYDRLPLI
1.78	5/6	KISGMSNHQSSVANNVA	ENVTRVN	QQYFRLPLA
2.17	4/6	KSSQSVLYESRNKNAVA	WASTRES	QQYHRMPLS
0.61	6/6	KSSPSYLGEKRNKNSVA	EASTRES	QQYHRLPLS
-0.48	6/6	KLSQSDLYESRNKNNVA	NASTRES	QQYHRLPLS
0.18	6/6	KLSQSVLYEDRNKNNVA	NASQRES	QQYHRLPLS
1.23	6/6	MMSQMFEGLSTSKNPVA	QVSTRLE	QQYHRLPLS
1.99	6/6	TIGSTLMYGMRNRSNVA	EVSERLN	QQYDRLPLM
0.66	6/6	KLSQVTHSESRNKNSIA	EMVTREV	QQYDRLPLT
-0.23	6/6	KLSQSQGYEQRNSNSVA	EASTRED	QQYHRLPLS
-0.03	6/6	KLQQSTLYESRNKNSVA	QASTRES	QQYHRLPLT
1.80	3/6	QISGIQGHMSTIKNNVA	EMVTRAN	QQYDRLPLS
2.25	3/6	NLGFEDANDNRGMMAVA	DVNTVGE	QHYNRLPLA
1.02	6/6	KSSQSWLYESRNKNSVA	GASTRES	QAYHRLPLS
0.29	6/6	TISQMLLMQTSHKNSVA	GEETRYE	QQYHRLPLS
0.43	6/6	KISQSVLYEDRNKNSVA	DASTRES	QQYHRYPLS
1.54	6/6	TIGQTLMSGVMNRSNVA	EVSERLN	QQYDRLPLL
no signal	0/6	KSSQSVLNISRNKNSVA	GASTRVS	QQYHRKPLS
0.36	6/6	KLPNSSLYESRNKNQVA	SASERES	QQYHRLPLS
2.52	2/6	KVSEFMRGLMQRKDSIA	DNVTRNS	QQYDRLPLS
0.53	6/6	KLMQSWLYESRNKNSVA	NASQRLS	QQYHRLPLS
-0.07	6/6	KVQQSNLYESRNKNSVA	NASTRLS	QQYHRLPLS
1.24	6/6	KLSWDCTTDLNRMSSIA	ESEVAND	QQYAHLPLT
0.80	6/6	HSSPSVEYESRNKNSVA	NASIRES	QQYHRLPLS
1.92	5/6	KSCQSVLYDSRNKNSVA	WASTRES	QQYHRLPLS
0.42	6/6	HISQMWFLESRNKNNVA	EESTRED	QSYFRLPLS
0.07	6/6	HSSPSVAYEDRNKNSVA	NASTRES	QQYHRLPLS
1.22	6/6	MLDNHQAGYYQKNNNIA	EMNMRRY	QQYGRLPLS
2.62	6/6	KSSQSVLYESDNKNSVA	WASTRES	QQYSALPLS
0.66	6/6	MISMEEAPAGQQESSIA	HGGTKAE	QQYNRLPLC
-0.05	6/6	KTEVSDLYESRNKNSVA	NASERES	QQYHRLPLS
0.57	6/6	KFQQSVGYQTRNKNSVA	EASQRES	QQYHRLPLS
-0.33	6/6	KLSQSELYESRNPNSVA	NASTRLS	QQYHRLPLS
0.23	6/6	KLSWSDLYESRNCNSVA	NASTREV	QQYHRLPLS
-0.42	6/6	KSSQSWLYESRNKNSVA	NASTREV	QQYHRLPLS
1.28	6/6	MISQLYNMGQFAINSVA	QASIRNQ	QQYDRLPLD
-0.27	6/6	KLPQSVLYESRVKNSVA	NASTRES	QQYHRLPLS
0.58	6/6	HISYSMAHLSRNKNSVA	NQQTRES	QQYERLPLS
0.08	6/6	KLDGSDQYESRNKNSVA	DASTRES	QAYHRLPLS
1.07	6/6	SLAYTQHFGFSQEKAIA	EVATREQ	QQYFRLPLT
1.63	6/6	KLSMVTGHMSMSKDNVA	EMETREY	QQYDRLPLS
0.76	6/6	KISMLINMTFEQSNNVA	EMVTREK	QQYNRLPLS
1.00	5/6	LISSVWDYGSRNYNSVA	QTSTREQ	QQYDRLPLE
1.66	6/6	TIQQMMSLFSQTINNVA	EVSTRLN	QQYDRLPLA
3.79	2/6	KSSQSVLYESRNKNDVA	TASTRER	QQYERLPLS
-0.37	6/6	KLSQSMLYESRNKNSVA	NASQREQ	QQYHRLPLS
-0.35	6/6	KLSQSVLYESRNKNSVA	SASTRES	QQYHRLPLM
1.63	6/6	KLSQSTLYESRNTNSVA	QASTRLQ	QQYHRLPLS
0.13	6/6	KVQQSELYESRNKNSVA	QASTRES	QQYHRLPLS
0.04	6/6	KLYQMTGIESHATNSLA	DANRRED	QQYHRLPLS
0.55	6/6	KSSPSELYEDRAFNSVA	HASQRES	QQYHRLPLS
1.38	2/6	RFDMAMPHAHSNINSIA	EDAIQAD	QQYDRLPLS
1.13	6/6	IISQSVMGESRNKNSVA	QTSERNY	QQYDRLPLA
0.61	6/6	KLRQSTAYLSENKNSVA	ELTTRGK	QQYFRLPLS
0.32	6/6	TMNVELIYGVPMMNNVA	AGSQKLA	QQYYRLPLS

A selection of 12 entries from above:

{"CDR-L1": "KLQQSTLYESRNKNSVA", "CDR-L2": "QASTRES", "CDR-L3": "QQYHRLPLT", "mean log10 Kd (nM)": "-0.03", "detected": "6/6"}
{"CDR-L1": "KLSMVTGHMSMSKDNVA", "CDR-L2": "EMETREY", "CDR-L3": "QQYDRLPLS", "mean log10 Kd (nM)": "1.63", "detected": "6/6"}
{"CDR-L1": "KLPQSVLYESRVKNSVA", "CDR-L2": "NASTRES", "CDR-L3": "QQYHRLPLS", "mean log10 Kd (nM)": "-0.27", "detected": "6/6"}
{"CDR-L1": "KLQQSELYESRNKNSVA", "CDR-L2": "QASTRMS", "CDR-L3": "QQYHRLPLS", "mean log10 Kd (nM)": "0.02", "detected": "6/6"}
{"CDR-L1": "TIQQMMSLFSQTINNVA", "CDR-L2": "EVSTRLN", "CDR-L3": "QQYDRLPLA", "mean log10 Kd (nM)": "1.66", "detected": "6/6"}
{"CDR-L1": "KLSQSDLYESRNKNNVA", "CDR-L2": "NASTRES", "CDR-L3": "QQYHRLPLS", "mean log10 Kd (nM)": "-0.48", "detected": "6/6"}
{"CDR-L1": "KLSQSVLYESRNKNSVA", "CDR-L2": "NASTRLE", "CDR-L3": "QQYHRLPLS", "mean log10 Kd (nM)": "-0.10", "detected": "6/6"}
{"CDR-L1": "KLSWSDLYESRNCNSVA", "CDR-L2": "NASTREV", "CDR-L3": "QQYHRLPLS", "mean log10 Kd (nM)": "0.23", "detected": "6/6"}
{"CDR-L1": "NISYLQGVSTNSVNNVA", "CDR-L2": "QASKRAP", "CDR-L3": "QYYQRLPLC", "mean log10 Kd (nM)": "1.03", "detected": "6/6"}
{"CDR-L1": "TISQMLLMQTSHKNSVA", "CDR-L2": "GEETRYE", "CDR-L3": "QQYHRLPLS", "mean log10 Kd (nM)": "0.29", "detected": "6/6"}
{"CDR-L1": "TIGSTLMYGMRNRSNVA", "CDR-L2": "EVSERLN", "CDR-L3": "QQYDRLPLM", "mean log10 Kd (nM)": "1.99", "detected": "6/6"}
{"CDR-L1": "KSGQEVLYESRNKNSVA", "CDR-L2": "GASLRES", "CDR-L3": "QQYHRLPLS", "mean log10 Kd (nM)": "-0.22", "detected": "6/6"}

The parent sequence was in this pool as ten entries: three were never detected, three once, and four in most replicates, with averages from 0.34 to 2.37. The authors' rule: three or more of the six replicates give a measured affinity, fewer mean a poor binder. Values of this round are not directly comparable with the first-round values of the same sequences.

Data: MIT Lincoln Laboratory AlphaSeq set, Li et al. 2023, doi:10.1038/s41467-023-39022-2, as distributed in FLAb.